Activity calls are given as the source filed them. No cut-off for these calls is given here.
Experiments:
[1] = tested on: Mus musculus; experiment: Anti-inflammatory activity in DSS-induced colitis female BALB/C mouse model assessed as decrease in disease activity index score at 100 mg/kg, po administered every day for 8 days; format: functional, organism-based; conditions: time 8.0 day
[2] = target: Histone deacetylase 1 (Mus musculus) (UniProt O09106); experiment: Inhibition of HDAC1 in mouse J774.A1 cells assessed as increase in acetylated histone H4 level at 0.1 to 9 uM incubated for 24 hrs by Western blot analysis; format: cell-based; conditions: dose 0.1-9 µM
[3] = target: T1, Histone deacetylase 3 (Mus musculus) (UniProt O88895); experiment: Inhibition of HDAC3 in mouse J774.A1 cells assessed as increase in acetylated histone H4 level at 0.1 to 9 uM incubated for 24 hrs by Western blot analysis; format: cell-based; conditions: dose 0.1-9 µM
T1 sequence (whole entry): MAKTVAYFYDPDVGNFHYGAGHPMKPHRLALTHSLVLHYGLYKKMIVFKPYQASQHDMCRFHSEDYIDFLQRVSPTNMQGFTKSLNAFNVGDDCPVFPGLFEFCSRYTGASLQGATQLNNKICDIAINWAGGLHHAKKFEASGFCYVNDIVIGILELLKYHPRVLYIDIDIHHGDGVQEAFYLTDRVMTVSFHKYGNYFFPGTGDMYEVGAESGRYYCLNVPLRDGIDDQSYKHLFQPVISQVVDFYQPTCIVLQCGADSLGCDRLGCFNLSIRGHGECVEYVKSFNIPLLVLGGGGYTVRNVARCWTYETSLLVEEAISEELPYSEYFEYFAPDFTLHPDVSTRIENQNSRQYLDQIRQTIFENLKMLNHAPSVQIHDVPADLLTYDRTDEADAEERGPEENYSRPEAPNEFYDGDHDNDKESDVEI

Sequences of proteins named here, by UniProt entry; tags and fusion partners are left off.
UniProt O09106, whole entry: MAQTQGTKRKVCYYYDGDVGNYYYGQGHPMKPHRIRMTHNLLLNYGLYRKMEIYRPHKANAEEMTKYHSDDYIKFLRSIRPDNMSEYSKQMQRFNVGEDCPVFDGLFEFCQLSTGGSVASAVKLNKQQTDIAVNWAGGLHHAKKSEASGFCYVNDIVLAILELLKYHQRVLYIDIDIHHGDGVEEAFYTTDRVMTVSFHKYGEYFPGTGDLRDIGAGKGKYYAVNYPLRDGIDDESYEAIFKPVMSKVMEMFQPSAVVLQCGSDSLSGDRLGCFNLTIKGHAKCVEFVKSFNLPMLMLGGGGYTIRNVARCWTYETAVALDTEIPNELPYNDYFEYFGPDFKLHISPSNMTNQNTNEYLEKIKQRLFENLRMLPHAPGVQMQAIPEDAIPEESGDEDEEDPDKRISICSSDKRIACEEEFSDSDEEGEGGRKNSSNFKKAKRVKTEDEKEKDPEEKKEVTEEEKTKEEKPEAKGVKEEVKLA
UniProt P70288, whole entry: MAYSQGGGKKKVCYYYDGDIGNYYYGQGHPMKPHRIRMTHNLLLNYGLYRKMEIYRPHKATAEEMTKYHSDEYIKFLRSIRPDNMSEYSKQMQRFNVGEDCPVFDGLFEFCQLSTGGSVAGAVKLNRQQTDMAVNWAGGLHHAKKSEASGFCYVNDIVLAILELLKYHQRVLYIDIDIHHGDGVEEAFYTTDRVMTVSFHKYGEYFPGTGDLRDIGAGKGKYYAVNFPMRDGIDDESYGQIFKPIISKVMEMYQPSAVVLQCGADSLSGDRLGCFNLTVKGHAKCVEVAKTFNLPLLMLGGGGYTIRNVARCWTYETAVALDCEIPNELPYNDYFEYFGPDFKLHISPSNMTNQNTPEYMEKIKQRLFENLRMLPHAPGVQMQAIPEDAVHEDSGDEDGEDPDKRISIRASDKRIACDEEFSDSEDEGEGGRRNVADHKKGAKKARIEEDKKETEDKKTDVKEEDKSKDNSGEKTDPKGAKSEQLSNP

[4] = target: Histone deacetylase 2 (Mus musculus) (UniProt P70288); experiment: Inhibition of HDAC2 in mouse J774.A1 cells assessed as increase in acetylated histone H3 level at 0.1 to 9 uM incubated for 24 hrs by Western blot analysis; format: cell-based; conditions: dose 0.1-9 µM
[5] = target: Histone deacetylase 1 (Mus musculus) (UniProt O09106); experiment: Inhibition of HDAC1 in mouse J774.A1 cells assessed as increase in acetylated histone H3 level at 0.1 to 9 uM incubated for 24 hrs by Western blot analysis; format: cell-based; conditions: dose 0.1-9 µM
[6] = target: T2, Protein deacetylase HDAC6 (Mus musculus) (UniProt Q9Z2V5); experiment: Inhibition of HDAC6 in mouse J774.A1 cells assessed as increase in accumulation of acetylated alpha-tubulin incubated for 24 hrs by Western blot analysis; format: cell-based; conditions: dose 0.1-9 µM
T2 sequence (whole entry): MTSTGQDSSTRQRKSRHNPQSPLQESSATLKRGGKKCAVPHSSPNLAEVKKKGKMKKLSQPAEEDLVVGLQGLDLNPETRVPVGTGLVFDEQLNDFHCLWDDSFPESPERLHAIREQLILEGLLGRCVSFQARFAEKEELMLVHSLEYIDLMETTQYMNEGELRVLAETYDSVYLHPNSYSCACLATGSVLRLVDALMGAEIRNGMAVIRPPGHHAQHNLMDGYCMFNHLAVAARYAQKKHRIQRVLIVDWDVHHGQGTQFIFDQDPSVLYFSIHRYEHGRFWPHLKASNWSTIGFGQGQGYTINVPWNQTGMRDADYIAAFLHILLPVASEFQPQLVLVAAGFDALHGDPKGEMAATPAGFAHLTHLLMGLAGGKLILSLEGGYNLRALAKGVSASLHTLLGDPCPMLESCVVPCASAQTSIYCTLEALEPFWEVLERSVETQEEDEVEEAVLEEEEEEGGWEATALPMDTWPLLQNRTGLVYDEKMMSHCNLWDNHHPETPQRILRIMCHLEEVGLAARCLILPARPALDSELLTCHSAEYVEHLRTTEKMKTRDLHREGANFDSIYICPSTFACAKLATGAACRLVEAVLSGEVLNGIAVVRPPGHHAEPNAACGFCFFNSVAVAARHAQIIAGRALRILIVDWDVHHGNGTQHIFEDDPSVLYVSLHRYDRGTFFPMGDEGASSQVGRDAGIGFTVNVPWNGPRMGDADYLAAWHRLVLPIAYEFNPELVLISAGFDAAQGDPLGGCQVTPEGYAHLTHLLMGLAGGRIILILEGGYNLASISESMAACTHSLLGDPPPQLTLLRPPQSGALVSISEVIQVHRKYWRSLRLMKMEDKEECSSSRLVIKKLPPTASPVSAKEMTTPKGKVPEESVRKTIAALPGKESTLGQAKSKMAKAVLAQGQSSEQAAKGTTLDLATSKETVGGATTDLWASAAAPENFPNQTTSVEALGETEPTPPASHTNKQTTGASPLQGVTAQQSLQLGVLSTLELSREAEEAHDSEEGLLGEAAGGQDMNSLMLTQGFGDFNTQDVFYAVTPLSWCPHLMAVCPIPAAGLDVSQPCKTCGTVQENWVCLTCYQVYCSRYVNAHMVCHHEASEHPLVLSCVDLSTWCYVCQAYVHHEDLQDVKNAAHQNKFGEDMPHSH

[7] = target: Histone deacetylase 2 (Mus musculus) (UniProt P70288); experiment: Inhibition of HDAC2 in mouse J774.A1 cells assessed as increase in acetylated histone H4 level at 0.1 to 9 uM incubated for 24 hrs by Western blot analysis; format: cell-based; conditions: dose 0.1-9 µM
[8] = target: T1, Histone deacetylase 3 (Mus musculus); experiment: Inhibition of HDAC3 in mouse J774.A1 cells assessed as increase in acetylated histone H3 level at 0.1 to 9 uM incubated for 24 hrs by Western blot analysis; format: cell-based; conditions: dose 0.1-9 µM
[9] = tested on: J774.A1; experiment: Antiproliferative activity against mouse J774.A1 cells assessed as inhibition of cell growth incubated for 48 hrs by resazurin reagent based assay; format: functional
[10] = target: Histone deacetylase 1 (Mus musculus) (UniProt O09106); experiment: Inhibition of HDAC1 in mouse J774.A1 cells assessed as increase in acetylated histone H4 level at 3 to 9 uM incubated for 24 hrs by Western blot analysis; format: cell-based; conditions: dose 3-9 µM
[11] = target: Histone deacetylase 2 (Mus musculus) (UniProt P70288); experiment: Inhibition of HDAC2 in mouse J774.A1 cells assessed as increase in acetylated histone H4 level at 3 to 9 uM incubated for 24 hrs by Western blot analysis; format: cell-based; conditions: dose 3-9 µM
[12] = target: T1, Histone deacetylase 3 (Mus musculus); experiment: Inhibition of HDAC3 in mouse J774.A1 cells assessed as increase in acetylated histone H3 level at 3 to 9 uM incubated for 24 hrs by Western blot analysis; format: cell-based; conditions: dose 3-9 µM
[13] = target: T1, Histone deacetylase 3 (Mus musculus); experiment: Inhibition of HDAC3 in mouse J774.A1 cells assessed as increase in acetylated histone H4 level at 3 to 9 uM incubated for 24 hrs by Western blot analysis; format: cell-based; conditions: dose 3-9 µM
[14] = target: Histone deacetylase 1 (Mus musculus) (UniProt O09106); experiment: Inhibition of HDAC1 in mouse J774.A1 cells assessed as increase in acetylated histone H3 level at 3 to 9 uM incubated for 24 hrs by Western blot analysis; format: cell-based; conditions: dose 3-9 µM
[15] = target: Histone deacetylase 2 (Mus musculus) (UniProt P70288); experiment: Inhibition of HDAC2 in mouse J774.A1 cells assessed as increase in acetylated histone H3 level at 3 to 9 uM incubated for 24 hrs by Western blot analysis; format: cell-based; conditions: dose 3-9 µM
[16] = tested on: Mus musculus; experiment: Anti-inflammatory activity against LPS-induced acute peritonitis male C57BL/6J mouse model assessed as reduction in IL-1beta level in serum at 40 mg/kg, po measured after 12 hrs by ELISA; format: functional, organism-based
[17] = tested on: Mus musculus; experiment: Anti-inflammatory activity against LPS-induced acute peritonitis male C57BL/6J mouse model assessed as reduction in IL-1beta level in serum at 20 mg/kg, po measured after 12 hrs by ELISA; format: functional, organism-based

SMILES | inhibition [6] | inhibition [10] | inhibition [11] | inhibition [12] | inhibition [13] | inhibition [14] | inhibition [15] | further results
Nc1ccc(O)c(C(=O)O)c1 |  |  |  |  |  |  |  | Activity [1]: Active
O=C(CCCCCCNC(=O)c1cnc(N(c2ccccc2)c2ccccc2)nc1)NO [RICOLINOSTAT] |  |  |  |  |  |  |  | Activity [9]: Active
CCNNC(=O)c1ccc(CN2c3ccccc3C=Cc3ccncc32)cc1 | Dose-dependent-effect | Active | Active | Active | Active | Active | Active | Activity [16]: inactive; Activity [17]: Active

Now from value to compound, other results behind:

inhibition [6] | inhibition [10] | inhibition [11] | inhibition [12] | inhibition [13] | inhibition [14] | inhibition [15] | SMILES | further results
Dose-dependent-effect |  |  |  |  |  |  | CCNNC(=O)c1cc(F)c(CN2c3ccccc3C=Cc3ccncc32)cc1F | inhibition [2]: inactive; inhibition [3]: inactive; inhibition [4]: inactive; inhibition [5]: inactive; inhibition [7]: inactive; inhibition [8]: inactive
Dose-dependent-effect | Active | Active | Active | Active | Active | Active | CCNNC(=O)c1ccc(CN2c3ccccc3C=Cc3ccncc32)c(F)c1 | 

Source: ChEMBL document CHEMBL6134854, “Development of Hydrazide-Based HDAC6 Selective Inhibitors for Treating NLRP3 Inflammasome-Related Diseases” (J Med Chem, 2025)
